# Values joined by “and” are separate entries in the source; they are usually repeats but may differ in a detail not shown here. Equal values may be shown once.
# Protein sequences, listed by entry. Tags and fused reporters are not part of them.
# UniProt P32305, whole entry: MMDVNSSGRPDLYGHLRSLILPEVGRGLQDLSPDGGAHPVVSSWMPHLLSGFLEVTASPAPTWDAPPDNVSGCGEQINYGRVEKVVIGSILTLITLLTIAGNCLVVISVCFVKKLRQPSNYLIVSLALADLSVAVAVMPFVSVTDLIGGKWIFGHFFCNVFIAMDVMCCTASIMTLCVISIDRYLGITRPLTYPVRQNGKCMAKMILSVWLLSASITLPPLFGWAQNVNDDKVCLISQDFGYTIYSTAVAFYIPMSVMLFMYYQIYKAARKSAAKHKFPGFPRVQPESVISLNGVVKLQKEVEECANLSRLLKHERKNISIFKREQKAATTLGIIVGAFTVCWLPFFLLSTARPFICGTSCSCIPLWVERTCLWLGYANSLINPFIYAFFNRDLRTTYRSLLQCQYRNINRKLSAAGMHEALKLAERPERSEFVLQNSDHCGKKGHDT
# Target: 5-hydroxytryptamine receptor 7 (Rattus norvegicus, UniProt P32305)
row,SMILES,Ki
1,"Clc1cccc(Cl)c1N=C1NCCN1 [2-(2,6-dichloroanilino)-2-imidazoline]",580 nM
2,"CCN(CC)C(=O)[C@@H]1C=C2c3cccc4[nH]cc(c34)C[C@H]2N(C)C1 [(4R,7R)-N,N-diethyl-6-methyl-6,11-diazatetracyclo[7.6.1.0^{2,7}.0^{12,16}]hexadeca-1(16),2,9,12,14-pentaene-4-carboxamide]",380 nM and 270 nM

# From BindingDB's records for doi:10.1016/0024-3205(76)90375-1 (1976)
